Assay results as given in patent US20090016989A1, “ANTIBODIES TO HUMAN SOMATOSTATIN RECEPTOR AND METHODS OF USE” (priority 2007, published 2009).

The chains behind the UniProt entries cited, without tags or fusion partners. Where a name states a change or a piece, a line headed by the entry shows the natural chain unless it says otherwise.
UniProt P30874: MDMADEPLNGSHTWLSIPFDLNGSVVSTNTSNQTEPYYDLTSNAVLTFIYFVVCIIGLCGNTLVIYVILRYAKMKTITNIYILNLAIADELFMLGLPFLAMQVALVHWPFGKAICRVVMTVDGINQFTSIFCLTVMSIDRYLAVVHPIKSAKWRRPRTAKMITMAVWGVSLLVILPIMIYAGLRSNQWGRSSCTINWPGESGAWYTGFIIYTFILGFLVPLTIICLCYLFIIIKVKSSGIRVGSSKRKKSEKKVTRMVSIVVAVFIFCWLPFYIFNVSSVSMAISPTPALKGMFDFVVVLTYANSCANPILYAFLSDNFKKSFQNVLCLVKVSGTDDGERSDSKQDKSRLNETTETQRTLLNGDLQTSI
UniProt P60041: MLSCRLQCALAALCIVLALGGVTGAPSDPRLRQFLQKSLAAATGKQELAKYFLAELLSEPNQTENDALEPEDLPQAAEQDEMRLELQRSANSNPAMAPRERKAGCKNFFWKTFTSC

Molecular target: human somatostatin receptor (hSSTR) subtype 2 (human) (UniProt P30874)
Experiment: cell-based or functional assay

Question: Which growth doubling time of 3T3 Flp-In hSSTR subtype 2 cells (3T3-Control: 31 hours) does the source give for “endogenous mouse SST (from UniProt P60041 103-116) (ligand)” here?
Answer: Its growth doubling time of 3T3 Flp-In hSSTR subtype 2 cells (3T3-Control: 31 hours) is 42 h.
